This assay deals with D(2) dopamine receptor (Homo sapiens) (UniProt P14416).

By UniProt entry, the sequences of proteins in these tests, tags left out.
UniProt P14416, whole entry: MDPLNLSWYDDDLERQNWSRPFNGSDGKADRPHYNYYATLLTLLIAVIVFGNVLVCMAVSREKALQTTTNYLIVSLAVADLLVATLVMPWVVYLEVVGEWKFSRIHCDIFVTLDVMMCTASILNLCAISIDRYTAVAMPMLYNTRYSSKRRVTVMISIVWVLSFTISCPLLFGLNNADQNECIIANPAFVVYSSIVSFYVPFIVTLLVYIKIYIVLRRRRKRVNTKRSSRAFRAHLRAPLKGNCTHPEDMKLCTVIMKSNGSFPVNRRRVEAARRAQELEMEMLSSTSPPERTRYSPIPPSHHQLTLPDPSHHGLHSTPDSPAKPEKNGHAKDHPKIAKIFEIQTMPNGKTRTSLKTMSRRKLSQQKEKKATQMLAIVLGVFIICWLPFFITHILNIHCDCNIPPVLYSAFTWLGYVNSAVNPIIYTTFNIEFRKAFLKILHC

Molecules are shown by their SMILES.

Usually pKi stands for the Ki on a negative log10 scale, so that one unit is a factor of ten. A high value points to a small Ki.

`CN(CCCC(=O)c1ccc(F)cc1)CCCC(O)c1ccc(Cl)cc1` (configuration not stated): the negative-log Ki (pKi) came to 7.58. The same measure for `O=C(CCCN1CCC(c2ccc(Cl)cc2)CC1)c1ccc(F)cc1`: 7.81.

The record behind these values is ChEMBL document CHEMBL1148442, “Design, synthesis, and evaluation of metabolism-based analogues of haloperidol incapable of forming MPP+-like species” (J Med Chem, 2004).
